# Data as given in publication PMC11079024, “Identification of a family of species-selective complex I inhibitors as potential anthelmintics” (Nature Communications, 2024).
# Protein sequences, listed by entry. Tags and fused reporters are not part of them. Lines headed by an entry give the natural chain unless they say otherwise; changes in a name come on top. Residues count along the entry.
# UniProt P24887: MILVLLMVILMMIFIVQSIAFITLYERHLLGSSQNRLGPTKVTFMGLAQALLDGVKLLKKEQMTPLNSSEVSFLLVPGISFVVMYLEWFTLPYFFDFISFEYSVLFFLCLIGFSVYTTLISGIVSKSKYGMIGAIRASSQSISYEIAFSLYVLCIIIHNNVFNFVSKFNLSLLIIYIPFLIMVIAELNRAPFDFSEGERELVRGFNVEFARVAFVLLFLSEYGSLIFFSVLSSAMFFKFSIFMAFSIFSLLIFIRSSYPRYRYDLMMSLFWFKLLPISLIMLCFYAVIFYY
# UniProt Q93873, 31-482: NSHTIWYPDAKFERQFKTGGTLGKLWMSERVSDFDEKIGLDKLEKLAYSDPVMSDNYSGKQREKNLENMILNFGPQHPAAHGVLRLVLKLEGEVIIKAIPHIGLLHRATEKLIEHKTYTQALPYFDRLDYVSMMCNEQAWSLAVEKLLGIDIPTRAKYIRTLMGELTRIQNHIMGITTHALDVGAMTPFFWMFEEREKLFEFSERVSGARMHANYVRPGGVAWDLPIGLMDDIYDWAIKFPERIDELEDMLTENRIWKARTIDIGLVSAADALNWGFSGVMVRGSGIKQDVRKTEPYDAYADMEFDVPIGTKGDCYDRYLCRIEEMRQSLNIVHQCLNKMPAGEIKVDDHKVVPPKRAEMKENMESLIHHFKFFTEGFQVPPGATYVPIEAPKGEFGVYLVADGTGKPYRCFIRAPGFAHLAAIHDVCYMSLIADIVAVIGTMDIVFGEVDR
# UniProt Q94360, 17-199: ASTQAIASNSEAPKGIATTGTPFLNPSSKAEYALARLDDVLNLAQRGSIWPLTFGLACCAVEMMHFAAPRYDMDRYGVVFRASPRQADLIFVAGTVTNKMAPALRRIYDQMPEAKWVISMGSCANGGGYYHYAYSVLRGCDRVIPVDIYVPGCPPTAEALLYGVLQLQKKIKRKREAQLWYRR
# UniProt A4UAP3: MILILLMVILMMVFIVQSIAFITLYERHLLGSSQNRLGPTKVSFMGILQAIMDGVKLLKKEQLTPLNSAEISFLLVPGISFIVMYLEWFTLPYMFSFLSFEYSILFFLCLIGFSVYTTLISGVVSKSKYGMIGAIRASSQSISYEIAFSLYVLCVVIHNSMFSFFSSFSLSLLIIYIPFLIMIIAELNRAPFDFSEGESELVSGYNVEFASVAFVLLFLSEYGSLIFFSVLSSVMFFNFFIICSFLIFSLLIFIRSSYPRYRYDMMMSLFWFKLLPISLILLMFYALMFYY
# UniProt P03888: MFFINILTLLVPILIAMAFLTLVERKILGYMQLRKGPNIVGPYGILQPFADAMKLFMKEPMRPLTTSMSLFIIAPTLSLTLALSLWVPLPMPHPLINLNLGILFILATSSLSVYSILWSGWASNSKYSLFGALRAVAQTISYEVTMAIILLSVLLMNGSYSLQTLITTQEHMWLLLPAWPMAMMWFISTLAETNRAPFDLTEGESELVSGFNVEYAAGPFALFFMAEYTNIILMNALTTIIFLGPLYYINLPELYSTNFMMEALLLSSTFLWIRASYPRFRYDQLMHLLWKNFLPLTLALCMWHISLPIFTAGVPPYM
# UniProt Q91WD5, 34-463: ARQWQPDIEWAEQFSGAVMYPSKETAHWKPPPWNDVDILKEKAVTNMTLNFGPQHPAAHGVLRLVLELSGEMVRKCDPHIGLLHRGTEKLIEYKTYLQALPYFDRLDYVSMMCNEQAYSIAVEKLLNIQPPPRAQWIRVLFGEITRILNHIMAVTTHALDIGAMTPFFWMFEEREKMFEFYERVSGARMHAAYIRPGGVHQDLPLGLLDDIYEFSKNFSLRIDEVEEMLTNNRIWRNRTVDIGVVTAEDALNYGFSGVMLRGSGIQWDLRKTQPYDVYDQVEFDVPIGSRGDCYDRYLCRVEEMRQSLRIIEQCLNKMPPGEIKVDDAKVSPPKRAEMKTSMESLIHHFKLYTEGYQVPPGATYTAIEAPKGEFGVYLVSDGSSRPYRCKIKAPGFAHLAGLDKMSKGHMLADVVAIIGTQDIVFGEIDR
# UniProt Q9DC70, 36-224: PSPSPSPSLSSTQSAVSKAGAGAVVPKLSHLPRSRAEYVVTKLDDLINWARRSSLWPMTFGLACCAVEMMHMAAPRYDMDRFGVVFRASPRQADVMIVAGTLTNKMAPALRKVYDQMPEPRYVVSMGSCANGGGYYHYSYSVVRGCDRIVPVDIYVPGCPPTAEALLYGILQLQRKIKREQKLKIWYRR
# Several values for one entry are separate records, joined by “and”; a condition that tells them apart may be missing. Identical values can stand only once. Like-named read-outs stand apart in the source and are kept apart here.
# How the values were obtained:
# [1] = target: C. elegans (N2) complex I (NADH:ubiquinone oxidoreductase) (Caenorhabditis elegans, UniProt P24887+Q93873+Q94360); assay: biochemical; assay type: biochemical; conditions: wild-type C. elegans, single replicate
# [2] = target: P. pacificus complex I (Pristionchus pacificus, UniProt A0A454XZ18+A0A8R1Z3U8+A4UAP3); assay: In vitro complex I activity assay, P. pacificus mitochondria; assay type: biochemical; conditions: single replicate
# [3] = target: M. musculus (heart) complex I (Mus musculus, UniProt P03888+Q91WD5+Q9DC70); assay type: biochemical; conditions: for percent (%) in vitro complex I activity relative to solvent control / in vitro complex I activity relative to solvent control: M. musculus (heart) mitochondria, single replicate
# [4] = test system: ben-1 mutant (ECA882) C. elegans; conditions: for C. elegans L1 relative development & viability (score 0-1 relative to DMSO controls): strain ECA882, deletion (ben-1); for C. elegans L1 relative development & viability: ECA882 deletion (ben-1)
# [5] = test system: L1 C. briggsae (AF16); assay: Liquid development and viability assay, C. briggsae; assay type: cell-based, Caenorhabditis briggsae; conditions: liquid growth and development assay, 1 = like DMSO control, 0 = death
smiles,measurement,setting,value
CC(C)Cc1ccc(C(C)c2nc3ccccc3n2C)cc1 (centres unmarked) [NPD8790],"in vitro complex I activity relative to solvent control, individual replicate",[1]; dose 0.625 µM,89.930% and 79.859% and 64.888%
same,"in vitro complex I activity relative to solvent control, individual replicate",[1]; dose 1.5 µM,85.561% and 77.079% and 65.007% and 53.572%
same,"in vitro complex I activity relative to solvent control, individual replicate",[1]; dose 3 µM,63.902% and 50.593% and 43.869% and 39.804%
same,"in vitro complex I activity relative to solvent control, individual replicate",[1]; dose 7.5 µM,26.429% and 29.179% and 11.826% and 13.203%
same,"in vitro complex I activity relative to solvent control, individual replicate",[1]; dose 15 µM,18.930% and 9.250% and 1.000% and 2.848%
same,"in vitro complex I activity relative to solvent control, individual replicate",[1]; dose 37.5 µM,4.585% and 3.323% and 2.205% and 3.893%
same,"in vitro complex I activity relative to solvent control, individual replicate",[1]; dose 75 µM,5.354% and 20.312% and 12.186% and 15.451%
same,in vitro complex I activity relative to solvent control,[2]; 0.0001 µM,88.002% and 87.975%
same,in vitro complex I activity relative to solvent control,[2]; 0.0005 µM,84.586% and 99.738%
same,in vitro complex I activity relative to solvent control,[2]; 0.001 µM,88.144% and 118.724% and 128.438%
same,in vitro complex I activity relative to solvent control,[2]; 0.0025 µM,91.851% and 121.800% and 114.985%
same,in vitro complex I activity relative to solvent control,[2]; 0.005 µM,88.090% and 129.528% and 134.644%
same,in vitro complex I activity relative to solvent control,[2]; 0.013 µM,75.261% and 114.147% and 126.153%
same,in vitro complex I activity relative to solvent control,[2]; 0.025 µM,93.189% and 109.711% and 118.899%
same,in vitro complex I activity relative to solvent control,[2]; 0.313 µM,84.029% and 90.800%
same,in vitro complex I activity relative to solvent control,[2]; 0.625 µM,90.077% and 71.350% and 65.156%
same,in vitro complex I activity relative to solvent control,[2]; 1.5 µM,77.861% and 69.113% and 57.365%
same,in vitro complex I activity relative to solvent control,[2]; 3 µM,55.217% and 59.547% and 32.622%
same,in vitro complex I activity relative to solvent control,[2]; 7.5 µM,35.946% and 21.621%
same,in vitro complex I activity relative to solvent control,[2]; 15 µM,20.646% and 38.121% and 5.573%
same,in vitro complex I activity relative to solvent control,[2]; 37.5 µM,7.989% and 34.972% and 5.846%
same,in vitro complex I activity relative to solvent control,[2]; 75 µM,8.992% and 21.695% and 3.235%
same,percent (%) in vitro complex I activity relative to solvent control,[3]; 0.125 µM,109.547% and 101.293% and 94.390%
same,percent (%) in vitro complex I activity relative to solvent control,[3]; 0.313 µM,105.665% and 95.123% and 91.398%
same,percent (%) in vitro complex I activity relative to solvent control,[3]; 1.5 µM,105.188% and 97.164% and 97.765%
same,percent (%) in vitro complex I activity relative to solvent control,[3]; 3 µM,102.668% and 98.080% and 95.248%
same,percent (%) in vitro complex I activity relative to solvent control,[3]; 7.5 µM,102.572% and 88.568% and 86.011%
same,percent (%) in vitro complex I activity relative to solvent control,[3]; 15 µM,87.100% and 75.283% and 75.658%
same,percent (%) in vitro complex I activity relative to solvent control,[3]; 37.5 µM,50.337% and 43.421% and 43.042%
same,percent (%) in vitro complex I activity relative to solvent control,[3]; 75 µM,29.417% and 25.967% and 25.618%
same,in vitro complex I activity relative to solvent control,[3]; 0.06 µM,102.752% and 117.261% and 99.301% and 94.461%
same,in vitro complex I activity relative to solvent control,[3]; 0.13 µM,109.547% and 101.293% and 94.390%
same,in vitro complex I activity relative to solvent control,[3]; 0.313 µM,105.665% and 95.123% and 91.398%
same,in vitro complex I activity relative to solvent control,[3]; 1.5 µM,105.188% and 97.164% and 97.765%
same,in vitro complex I activity relative to solvent control,[3]; 3 µM,102.668% and 98.080% and 95.248%
same,in vitro complex I activity relative to solvent control,[3]; 7.5 µM,102.572% and 88.568% and 86.011%
same,in vitro complex I activity relative to solvent control,[3]; 15 µM,87.100% and 75.283% and 75.658%
same,in vitro complex I activity relative to solvent control,[3]; 37.5 µM,50.337% and 43.421% and 43.042%
same,in vitro complex I activity relative to solvent control,[3]; 75 µM,29.417% and 25.967% and 25.618%
same,M. musculus: C. elegans IC50 Fold Change,"[3]; mouse, heart mitochondria",12.3
same,C. elegans L1 relative development & viability (score 0-1 relative to DMSO controls),[4]; 1 µM,1.000
same,C. elegans L1 relative development & viability (score 0-1 relative to DMSO controls),[4]; 2 µM,1.000
same,C. elegans L1 relative development & viability (score 0-1 relative to DMSO controls),[4]; 3.9 µM,1.000
same,C. elegans L1 relative development & viability (score 0-1 relative to DMSO controls),[4]; 7.8 µM,1.000
same,C. elegans L1 relative development & viability (score 0-1 relative to DMSO controls),[4]; 15.6 µM,0.845
same,C. elegans L1 relative development & viability (score 0-1 relative to DMSO controls),[4]; 31.3 µM,1.000
same,C. elegans L1 relative development & viability (score 0-1 relative to DMSO controls),[4]; 62.5 µM,1.000
same,C. elegans L1 relative development & viability (score 0-1 relative to DMSO controls),[4]; 125 µM,1.000
same,C. elegans L1 relative development & viability (score 0-1 relative to DMSO controls),[4]; 250 µM,1.000
same,C. elegans L1 relative development & viability (score 0-1 relative to DMSO controls),[4]; 500 µM,0.458
same,C. elegans L1 relative development & viability,"[4]; 1 µM, score 0-1 relative to DMSO, values >1 set to 1",1.000
same,C. elegans L1 relative development & viability,"[4]; 2 µM, score 0-1 relative to DMSO, values >1 set to 1",1.000
same,C. elegans L1 relative development & viability,"[4]; 3.9 µM, score 0-1 relative to DMSO, values >1 set to 1",1.000
same,C. elegans L1 relative development & viability,"[4]; 7.8 µM, score 0-1 relative to DMSO, values >1 set to 1",1.000
same,C. elegans L1 relative development & viability,"[4]; 15.6 µM, […]",0.845
same,C. elegans L1 relative development & viability,"[4]; 31.3 µM, score 0-1 relative to DMSO, values >1 set to 1",1.000
same,C. elegans L1 relative development & viability,"[4]; 62.5 µM, score 0-1 relative to DMSO, values >1 set to 1",1.000
same,C. elegans L1 relative development & viability,"[4]; 125 µM, score 0-1 relative to DMSO, values >1 set to 1",1.000
same,C. elegans L1 relative development & viability,"[4]; 250 µM, score 0-1 relative to DMSO, values >1 set to 1",1.000
same,C. elegans L1 relative development & viability,"[4]; 500 µM, […]",0.458
same,viability score (0-1) relative to DMSO controls,[5]; 2 µM,1.000
same,viability score (0-1) relative to DMSO controls,[5]; 3.9 µM,1.000
same,viability score (0-1) relative to DMSO controls,[5]; 7.8 µM,1.000
same,viability score (0-1) relative to DMSO controls,[5]; 15.6 µM,1.000
same,viability score (0-1) relative to DMSO controls,[5]; 31.3 µM,1.000
same,viability score (0-1) relative to DMSO controls,[5]; 62.5 µM,1.000
same,viability score (0-1) relative to DMSO controls,[5]; 125 µM,0.426
same,viability score (0-1) relative to DMSO controls,[5]; 250 µM,0.027
